Data published in ChEMBL document CHEMBL4411313, “Substrate-Specific Inhibition Constants for Phospholipase A2 Acting on Unique Phospholipid Substrates in Mixed Micelles and Membranes Using Lipidomics” (J Med Chem, 2019).

Key:
[1] = biological target: Secretory phospholipase A2; experiment: Inhibition of human recombinant sPLA2 assessed as reduction in 16:0 LPC formation after 30 mins by HPLC-MS analysis; type: protein assay
[2] = biological target: Secretory phospholipase A2; experiment: Inhibition of human recombinant sPLA2 assessed as reduction in free FA formation after 30 mins by HPLC-MS analysis; type: protein assay

CCc1c(C(=O)C(N)=O)c2c(OCC(=O)O)cccc2n1Cc1ccccc1 [VARESPLADIB]
IC50 [1]: 114 nM | IC50 [2]: 131 nM
